Reference: publication PMC11259064, “Enhanced binding of guanylated poly(A) RNA by the LaM domain of LARP1” (RNA Biology, 2024)

Biological target: T1, human LARP1 LaM domain (residues 323–410) (Homo sapiens, UniProt Q6PKG0)
T1 construct: human LARP1 LaM domain (residues 323–410); made in house; host or cells: E. coli
Assay: Isothermal titration calorimetry (ITC) of RNA ligands binding LARP1 (323-410)
Conditions: 20°C, LaM 20-30 µM in cell, RNA 300 µM in syringe, single set of identical sites
Experimental: ITC experiments were performed on the VP-ITC titration calorimeter (Malvern Instruments Ltd) except where noted. […] All experiments were carried out at 20°C with 29 injections of 10 µl. Results were analysed using ORIGIN software (MicroCal) and fitted to a binding model with a single set of identical sites, except where noted.

## 5´-APAPAPAPGPA-3´ [AAAAGA]
  Kd: 80 nM
